Here are results for one substance from patent US7211395B2, “Serum albumin binding moieties” (Dyax Corp., priority 2001, dated 2007).

Amino acid sequences for entries named in this document (tags omitted). Residues count along the entry.
UniProt P02768, 25-609: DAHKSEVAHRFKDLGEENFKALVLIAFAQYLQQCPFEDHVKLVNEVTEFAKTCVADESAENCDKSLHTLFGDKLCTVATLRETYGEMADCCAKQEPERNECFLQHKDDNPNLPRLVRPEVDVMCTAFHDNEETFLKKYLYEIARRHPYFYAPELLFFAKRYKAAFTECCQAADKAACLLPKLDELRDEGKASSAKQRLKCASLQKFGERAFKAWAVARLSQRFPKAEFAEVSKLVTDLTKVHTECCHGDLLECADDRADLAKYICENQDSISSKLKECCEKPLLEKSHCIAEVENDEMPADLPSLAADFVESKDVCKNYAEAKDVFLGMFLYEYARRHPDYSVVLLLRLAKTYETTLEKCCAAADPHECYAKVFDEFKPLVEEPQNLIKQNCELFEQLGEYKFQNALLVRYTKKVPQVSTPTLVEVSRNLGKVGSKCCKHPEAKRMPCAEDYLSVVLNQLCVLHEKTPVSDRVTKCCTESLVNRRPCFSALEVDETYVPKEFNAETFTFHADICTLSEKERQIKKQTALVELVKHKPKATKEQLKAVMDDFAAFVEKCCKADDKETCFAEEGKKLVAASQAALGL

In this assay the target is T1, human serum albumin (HSA) (Homo sapiens, UniProt P02768).
T1 construct: purchased ICN
The assay is described as follows: Fluorescence anisotropy, direct binding of fluorescein-labeled peptide to HSA. As to conditions: read-out: KD for Truncated Peptides of DX-236; buffer not stated in Table 2. The protocol: Affinity determinations were made by first labeling polypeptides on the C-terminal end with NHS-fluorescein. Fluorescence anisotropy measurements were performed in 384-well microplates in a volume of 10 μl in binding buffer using a Tecan Polarion fluorescence polarization plate reader. The concentration of fluorescein labeled peptide was held constant (20 nM), and the concentration of HSA was varied. For pH 6.2, 7.1, and 7.4 binding conditions, a 3 mM phosphate, 0.01% TWEEN-20® buffer was used. For pH 9.1 binding conditions, a 3 mM sodium bicarbonate buffer, 0.01% TWEEN-20® nonionic detergent buffer was used. Once NaCi was added to any of these buffers, their pH was adjusted again to achieve the original pH. The binding mixtures were equilibrated for 10 minutes in the microplate at […] prior to performing the measurement. The observed change in anisotropy was fit to the equation below via nonlinear regression to obtain the apparent KD. This equation assumes that the peptide and HSA form a reversible complex with 1:1 stoichiometry.
On the technique in general: In fluorescence polarisation assays a small probe gives low polarisation when free and higher when bound to something large.

As to Ac-DRIAWYPQHLGGGK—NH2 [SEQ ID NO: 44], the Kd was 125 µM.

For orientation: Kd means the equilibrium constant for the complex coming apart.
